Reference: patent publication US7169772B2, “4,4-difluoro-1,2,3,4-tetrahydro-5H-1-benzazepine derivatives or salts thereof” (Astellas Pharma Inc., priority 2001, dated 2007)

Chains of the proteins cited; added tags and fusions are not shown.
UniProt P08684, whole entry: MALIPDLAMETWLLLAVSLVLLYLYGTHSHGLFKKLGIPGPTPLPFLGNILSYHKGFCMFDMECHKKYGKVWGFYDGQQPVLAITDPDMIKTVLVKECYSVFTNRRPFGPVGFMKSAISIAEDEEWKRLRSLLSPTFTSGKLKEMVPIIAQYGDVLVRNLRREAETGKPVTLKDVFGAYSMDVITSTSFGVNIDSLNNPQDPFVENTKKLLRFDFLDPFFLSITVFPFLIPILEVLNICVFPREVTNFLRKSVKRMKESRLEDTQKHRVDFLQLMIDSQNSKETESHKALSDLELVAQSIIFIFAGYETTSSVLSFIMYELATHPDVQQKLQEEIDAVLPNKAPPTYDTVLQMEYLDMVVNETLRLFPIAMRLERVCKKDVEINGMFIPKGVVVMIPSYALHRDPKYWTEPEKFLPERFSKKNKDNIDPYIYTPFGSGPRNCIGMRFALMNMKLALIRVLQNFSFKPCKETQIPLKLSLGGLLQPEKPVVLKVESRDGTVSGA
UniProt P11712, whole entry: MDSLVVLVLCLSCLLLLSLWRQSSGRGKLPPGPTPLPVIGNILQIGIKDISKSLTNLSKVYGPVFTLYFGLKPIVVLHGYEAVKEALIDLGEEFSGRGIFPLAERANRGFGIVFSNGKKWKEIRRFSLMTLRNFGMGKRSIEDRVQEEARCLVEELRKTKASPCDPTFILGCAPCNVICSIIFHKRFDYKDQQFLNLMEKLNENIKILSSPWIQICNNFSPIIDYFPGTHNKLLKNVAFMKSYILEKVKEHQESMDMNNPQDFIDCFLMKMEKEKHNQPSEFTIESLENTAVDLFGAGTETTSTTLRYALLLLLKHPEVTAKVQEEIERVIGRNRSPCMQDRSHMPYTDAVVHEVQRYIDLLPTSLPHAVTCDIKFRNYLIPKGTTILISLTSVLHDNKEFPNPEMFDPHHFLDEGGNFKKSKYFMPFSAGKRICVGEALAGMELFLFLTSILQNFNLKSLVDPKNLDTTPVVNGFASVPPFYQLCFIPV

How the values were obtained:
[1] = molecular target: CYP3A4 (Homo sapiens, UniProt P08684); assay: Cytochrome P450 (3A4) enzyme inhibition assay; conditions: read-out: IC50 CYP3A4; substrate 7-benzyloxy-4-(trifluoromethyl)coumarin, 37° C., 30 minutes; tested form: HCl
[2] = molecular target: CYP2C9 (Homo sapiens, UniProt P11712); assay: Cytochrome P450 (2C9) enzyme inhibition effects; conditions: read-out: IC50 CYP2C9; substrate 7-methoxy-4-(trifluoromethyl)coumarin, 37° C., 45 minutes; tested form: HCl
Description: C0: fluorescence intensity in the presence of an enzyme and a substrate, in the absence of a test compound • B1: fluorescence intensity of a blank well (5) Cytochrome P450 (2C9) Enzyme Inhibition Effects
The assay was carried out in accordance with a method of Crespi, et al. (Analytical Biochemistry, 248, 188–190, 1997).
A 96 well plate was employed, and 7-methoxy-4-(trifluoromethyl)coumarin (7.5×10^−5 M) as a substrate, a test compound (4.9×10^−8˜5×10^−5M), and an enzyme (10^−8 M) were incubated in a total of 200 μl of a 200 mM phosphate buffer solution (pH=7.4) comprising 8.2 μM NADP+, 0.41 mM glucose-6-phosphate, 0.41 mM MgCl2, and 0.4 Units/ml glucose-6-phosphate dehydrogenase, at 37° C. for 45 minutes. Then, 0.5 M aqueous solution of 2-amino-2-hydroxymethyl-1,3-propanediol containing 80% acetonitrile was added thereto to stop the reaction, and fluorescence intensity was measured with a fluorescent plate reader (excited wavelength: 409 nm, fluorescent wavelength: 530 nm). Inhibition rate was calculated from the above equation in (4), and the concentration of the test compound corresponding to an inhibition rate of 50% (IC50) was calculated.

O=C(/C=C1/c2ccccc2N(C(=O)c2ccc(-n3cccn3)cc2Cl)CCC1(F)F)NCc1ccccn1
IC50 [1]: 16 µM | IC50 [2]: 6.5 µM
